Patent publication US20170343554A1, “METHODS OF MEASURING ERBB SIGNALING PATHWAY ACTIVITY TO DIAGNOSE AND TREAT CANCER PATIENTS” (Celcuity LLC, priority 2014, published 2017)
Where two headings read alike, the source gives them in different places.

What was measured:
[1] = system: cancer patients (Patients B1, B2, B4, C1, C2); settings: cited from earlier work
[2] = system: cells from two HER2 overexpressing breast cancer patients (Patient B1 and B4); assay: CELx Pathway Shutdown test, impedance biosensor CReMS, EGF perturbation (Example 1); assay type: cell-based, human
Experimental: The physiologic change of the B1 and B4 cells during the test was measured with an impedance biosensor CReMS and the output from the CReMS is recorded in FIGS. 1A and 1B. The comparison of the CELx test results and the third party clinical reference is recorded in FIG. 1C. This example illustrates how the CELx test is able to predict the responsiveness that a patient will have to different targeted pathway drugs by using a CReMS to measure the physiological change in a patient's cells continuously over a period of several hours. This example also illustrates how the presence of a genetic biomarker, in this case an overexpressing HER2 receptor, is not a sufficient condition to predict efficacy of the drug.
A 4″×6″, 96-well impedance microplate was placed into a Roche Applied Science (Indianapolis, Ind.) xCELLigence SP impedance biosensor designed to maintain constant voltage while measuring simultaneously the impedance of every well. The change in impedance for a particular well is proportional to the number of cells and type of attachment the cells have with the impedance microplate. Changes in impedance indicate a response to perturbation of these small cell populations.
Cells from Patient B1 and B4 were utilized. The cells were received at −80° C., thawed and cultured according to standard human epithelial cell handling procedure, typically in T75 culture flasks containing buffered media with serum at 37° C., 5% CO2. Prior to addition to the impedance microplate, the cells were removed from their growth container with versene, counted, and re-suspended in media without serum or other growth factors.
Standard media, serum, antibiotics (e.g. penicillin, streptomycin), and other buffers were purchased and used as delivered from ATCC (Manassas, Va., USA) or Life Technologies (Grand Island, N.Y.). […] The therapeutic agent Lapatinib, a small molecule drug, was purchased from Selleck Chemicals (TX, USA); trastuzumab, an antibody drug, was obtained from a clinical dispensary. […]

[3] = system: cells from two colon cancer patients (Patients C1 and C2); assay: CELx Combination test, impedance biosensor CReMS (Example 3); assay type: cell-based, human; settings: Patient C1 cells
Experimental: The physiologic change of the C1 and C2 cells during the test was measured with an impedance biosensor CReMS and the output from the CReMS is recorded in FIGS. 3A and 3B. The comparison of the CELx test result and the third party clinical reference is recorded in FIG. 3C. […] The test also illustrates how the CELx test operates with colon cancer cells, in addition to breast cancer cells.
The CReMS, microplate, reagents, and buffers used in Examples 1 and 2 are the same as those employed in Example 3, except for the therapeutic agent used. In Example 3, two therapeutic agents, cetuximab and irinotecan, were tested. Irinotecan was purchased from Selleck Chemicals (TX, USA) and cetuximab was obtained from a clinical dispensary.
Colon cancer cells from Patients C1 and C2 were utilized and handled in the same manner as described in Example 1.
Between 6,000-12,000 cells in each well were seeded into the impedance microplate containing 120 uL settling media with serum. The solution was replaced with media containing no serum to synchronize the cells with respect to physiologic state. Twenty microliters each of irinotecan and cetuximab was added to one set each of the C1 and C2 cells; another control set of C1 and C2 cells received no drugs. […]

Substance	responsiveness recorded by the third party clinical reference standard ([1]; Patient B1 (breast cancer))	responsiveness recorded by the third party clinical reference standard ([1]; Patient B4 (breast cancer))	CELx Pathway Shutdown test prediction of patient response ([2]; Patient B1)	change of cell index after the drug was added to the perturbed cells ([2]; Patient B1 cells, EGF perturbation, versus perturbation with no drug)	CELx Pathway Shutdown test prediction of patient response ([2]; Patient B4)	physiologic change caused by the individual drug of the combination [3]
Trastuzumab	unresponsive	responsive	will not respond	less than 5%	would respond	–
Cetuximab	–	–	–	–	–	did not cause a physiologic change
